{"sequences": {"note": "Chains of the proteins cited; added tags and fusions are not shown.", "UniProt Q13547, whole entry": "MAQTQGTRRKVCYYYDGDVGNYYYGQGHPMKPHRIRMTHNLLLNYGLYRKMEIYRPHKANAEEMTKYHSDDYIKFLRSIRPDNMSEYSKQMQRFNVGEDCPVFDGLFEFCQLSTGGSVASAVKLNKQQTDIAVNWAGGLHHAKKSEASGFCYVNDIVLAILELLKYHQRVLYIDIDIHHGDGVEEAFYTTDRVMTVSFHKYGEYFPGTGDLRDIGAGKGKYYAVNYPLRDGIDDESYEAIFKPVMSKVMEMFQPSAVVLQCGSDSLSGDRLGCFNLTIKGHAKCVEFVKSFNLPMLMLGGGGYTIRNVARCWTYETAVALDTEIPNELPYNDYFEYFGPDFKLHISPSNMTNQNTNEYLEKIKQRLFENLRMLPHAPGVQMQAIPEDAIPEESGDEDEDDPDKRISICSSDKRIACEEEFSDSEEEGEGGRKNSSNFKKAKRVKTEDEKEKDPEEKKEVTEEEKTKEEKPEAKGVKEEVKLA"}, "source": "paper PMC9303312", "about": "“Balancing Histone Deacetylase (HDAC) Inhibition and Drug‐likeness: Biological and Physicochemical Evaluation of Class I Selective HDAC Inhibitors” (Chemmedchem, 2022)", "key": {"human recombinant HDAC6": {"target": "T1, human recombinant HDAC6 (Homo sapiens, UniProt Q9UBN7)", "T1 sequence (Q9UBN7 1-1215)": "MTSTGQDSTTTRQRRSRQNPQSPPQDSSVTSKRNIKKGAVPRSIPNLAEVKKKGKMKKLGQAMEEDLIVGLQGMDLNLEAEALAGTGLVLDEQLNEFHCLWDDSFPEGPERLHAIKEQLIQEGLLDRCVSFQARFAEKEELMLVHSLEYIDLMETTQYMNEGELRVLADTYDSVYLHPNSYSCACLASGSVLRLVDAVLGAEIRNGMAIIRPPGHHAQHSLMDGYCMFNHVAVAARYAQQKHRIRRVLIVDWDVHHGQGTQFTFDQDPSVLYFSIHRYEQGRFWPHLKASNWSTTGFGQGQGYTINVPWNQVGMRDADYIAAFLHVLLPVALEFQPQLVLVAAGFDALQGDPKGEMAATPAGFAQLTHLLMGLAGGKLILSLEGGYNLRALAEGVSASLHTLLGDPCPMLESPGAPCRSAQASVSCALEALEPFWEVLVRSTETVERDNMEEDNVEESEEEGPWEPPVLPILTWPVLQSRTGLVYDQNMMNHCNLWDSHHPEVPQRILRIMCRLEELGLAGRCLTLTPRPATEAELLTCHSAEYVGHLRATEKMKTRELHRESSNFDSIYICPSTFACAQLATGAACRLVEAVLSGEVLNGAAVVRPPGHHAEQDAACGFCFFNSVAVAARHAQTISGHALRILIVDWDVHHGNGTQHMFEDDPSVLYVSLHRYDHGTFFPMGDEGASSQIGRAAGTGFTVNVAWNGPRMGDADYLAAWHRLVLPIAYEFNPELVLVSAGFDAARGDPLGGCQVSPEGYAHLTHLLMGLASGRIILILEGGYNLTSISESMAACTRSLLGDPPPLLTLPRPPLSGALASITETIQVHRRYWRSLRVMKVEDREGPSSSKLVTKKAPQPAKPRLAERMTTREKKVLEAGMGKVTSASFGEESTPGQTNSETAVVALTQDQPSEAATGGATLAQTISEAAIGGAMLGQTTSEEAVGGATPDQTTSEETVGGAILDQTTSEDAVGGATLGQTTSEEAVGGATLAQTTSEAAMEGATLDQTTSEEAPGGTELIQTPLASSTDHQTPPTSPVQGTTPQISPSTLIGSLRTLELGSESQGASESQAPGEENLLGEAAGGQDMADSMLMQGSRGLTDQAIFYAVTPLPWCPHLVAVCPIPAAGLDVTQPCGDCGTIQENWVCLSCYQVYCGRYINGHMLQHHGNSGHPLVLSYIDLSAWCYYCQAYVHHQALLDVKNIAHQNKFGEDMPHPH", "assay": "In vitro HDAC inhibition preincubation assay (ZMAL substrate)"}, "HDAC1": {"target": "HDAC1 (Homo sapiens, UniProt Q13547)", "assay": "In vitro HDAC inhibition preincubation assay (ZMAL substrate)"}, "MCF‐7 cells": {"system": "MCF‐7 cells", "assay": "Modified wound healing (migration) assay", "assay_type": "cell-based, human", "conditions": "MCF-7, 10 μM, followed over 97 h, compared to DMSO control", "method": "In a modified wound healing assay (see Figure 10B and 10C, for representative pictures of the time‐dependent wound closure see SI Figure S12) cells were preincubated with 10 μM of the indicated compounds and cell migration was followed over 97 h and compared to the DMSO treated control cells. […]\ntemperature and then incubated at 4°C overnight. Membranes were rinsed again three times before applying the secondary anti-rabbit IgG HRP-conjugated mAbs (Santa Cruz Biotechnology, Texas, USA) for 90 min. Primary antibodies were diluted 1:500 and the secondary antibody was diluted 1:20.000. After rinsing of the secondary antibody, membranes were detected using Clarity™ECL Western Blotting Substrate (Bio-Rad). For quantitative determination, the StainFree™ technique was employed (Bio-Rad), as well as normalization, against the housekeeping protein GAPDH, which allows the imaging of whole lysates in SDS-PAGE before blotting and normalization against the total protein. Pixel density analysis was performed with the IMAGE LAB software […]\nMigration assay. 3D printed (size: 0.5 mm gap) culture-inserts (custom made) were used for pre- […]\nGmbH, Hamburg, Germany), in total. […]\na Axiovert 200 microscope (Carl-Zeiss, Jena, Germany). Migration speed was quantified as reduced scratch wound over time. […]"}}}
{"smiles": "CC(=O)Nc1ccc(C(=O)Nc2cc(-c3cccs3)ccc2N)cc1", "note": "[6 c]", "values": [{"measurement": "IC50", "setting": "human recombinant HDAC6", "result": "> 10", "unit": "µM"}]}
{"smiles": "CN(C)c1ccc(C(=O)N(CC(=O)NC(C)(C)C)Cc2ccc(C(=O)Nc3cc(-c4ccncc4)ccc3N)cc2)cc1", "note": "[10 c]", "values": [{"measurement": "IC50", "setting": "HDAC1", "result": "26.2 ± 0.9", "unit": "nM"}]}
{"smiles": "O=C(CCCCCCC(=O)Nc1ccccc1)NO", "note": "[vorinostat, reference compound]", "values": [{"measurement": "effect on cell migration (wound closure)", "setting": "MCF‐7 cells", "result": "attenuated cell migration comparably and significantly"}]}
